Assays:
[1] = target: Kappa-type opioid receptor (Mus musculus) (UniProt P33534); experiment: In vitro efficacy in field stimulated mouse vas deferens assay expressed as Ke for naloxone versus compound
[2] = target: Kappa-type opioid receptor (Mus musculus) (UniProt P33534); experiment: Agonistic activity on field stimulated mouse vas deferens preparation expressed as molar potency ratio relative to standard agonist EKC
[3] = target: Kappa-type opioid receptor (Mus musculus) (UniProt P33534); experiment: Molar potency ratio relative to the standard agonist EKC assayed in mouse vas deferens.
[4] = target: Kappa-type opioid receptor (Mus musculus) (UniProt P33534); experiment: In vitro efficacy against naloxone, in mouse vas deferens, activity expressed as Ke values.
Mus musculus [5] = species: Mus musculus; experiment: In vitro efficacy against naloxone, in mouse vas uM; conditions: filed as antagonist
Mus musculus [6] = species: Mus musculus; experiment: Agonistic activity on field stimulated mouse vas deferens preparation expressed as molar potency ratio relative to standard agonist EKC; c = Weak antagonist, Ke = 530 nM.; conditions: filed as antagonist
Mus musculus [7] = species: Mus musculus; experiment: In vitro efficacy against naloxone, in mouse vas deferens, activity expressed as Ke values; d = Antagonism not competitive.; conditions: filed as antagonist

By UniProt entry, the sequences of proteins in these tests, tags left out. Where a name states a change or a piece, a line headed by the entry shows the natural chain unless it says otherwise.
UniProt P33534: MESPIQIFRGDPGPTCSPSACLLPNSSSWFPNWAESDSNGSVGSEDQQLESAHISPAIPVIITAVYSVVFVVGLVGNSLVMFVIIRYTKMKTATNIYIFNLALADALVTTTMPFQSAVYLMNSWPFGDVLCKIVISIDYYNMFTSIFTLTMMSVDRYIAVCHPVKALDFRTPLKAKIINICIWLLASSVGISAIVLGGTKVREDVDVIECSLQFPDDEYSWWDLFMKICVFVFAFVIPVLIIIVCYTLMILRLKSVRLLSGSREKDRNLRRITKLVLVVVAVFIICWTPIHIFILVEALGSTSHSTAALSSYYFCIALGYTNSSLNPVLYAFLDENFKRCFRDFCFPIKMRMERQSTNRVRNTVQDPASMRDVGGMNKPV

| Structure (SMILES) | Ke [1] [nM] | Potency ratio [2] | also measured |
| --- | --- | --- | --- |
| CCN(CC)C[C@H](C(C)C)N(C)C(=O)Cc1ccc(Cl)c(Cl)c1 | 14.2 | 0.3 |  |
| CC(C)[C@@H](CN1CCCC1)N(C)C(=O)Cc1ccc(Cl)cc1 |  |  | Potency ratio [3]: 0.4; Ke [4]: 16.3 nM |
| CCCN(C)C[C@H](C(C)C)N(C)C(=O)Cc1ccc(Cl)c(Cl)c1 | 8.9 | 1.18 |  |
| CCCN(C(=O)Cc1ccccc1)[C@H](CN1CCCC1)C(C)C |  | 0.021 |  |
| CC(C)[C@@H](CN(C)C)N(C)C(=O)Cc1ccc(Cl)c(Cl)c1 | 27.2 | 0.32 |  |
| CC(C)[C@@H](CN1CCCC1)N(C)C(=O)Cc1ccc(F)c(F)c1 |  | 0.1 |  |
| CC(C)[C@@H](CN1CCCC1)NC(=O)Cc1ccccc1 |  | 0.08 |  |
| CC(C)[C@@H](CN1CCCC1)N(C)C(=O)Cc1ccc(C(F)(F)F)cc1 | 15.5 | 0.97 |  |
| CN(C(=O)Cc1ccc(Cl)c(Cl)c1)[C@@H](CN1CCCC1)c1ccccc1 |  |  | Ke (Mus musculus [5]): Partial antagonist |
| CC(C)[C@@H](CN(C)Cc1ccccc1)N(C)C(=O)Cc1ccc(Cl)c(Cl)c1 |  |  | Potency ratio (Mus musculus [6]): Partial antagonist |
| CC(C)[C@@H](CN1CCCC1)N(C)C(=O)Cc1ccc([N+](=O)[O-])cc1 | 16.9 | 0.24 |  |
| CNC[C@H](C(C)C)N(C)C(=O)Cc1ccc(Cl)c(Cl)c1 |  | 0.003 |  |
| CC(C)[C@@H](CN1CCCC1)N(C)C(=O)CCc1ccccc1 |  | 2 |  |
| CC(C)[C@@H](CN(C)C(C)C)N(C)C(=O)Cc1ccc(Cl)c(Cl)c1 | 15.1 | 3.84 |  |
| CC(C)[C@@H](CN1CCCC1)N(C)C(=O)COc1ccccc1 | 21.8 | 1.7 |  |
| CC(C)[C@@H](CN1CCCC1)N(C)C(=O)Cc1ccccc1 |  | 0.016 |  |
| CC(=O)Nc1cccc(C(CN2CCCC2)N(C)C(=O)Cc2ccc(Cl)c(Cl)c2)c1 (stereo not given) |  | 21.4 |  |
| COc1ccc(CC(=O)N(C)[C@H](CN2CCCC2)C(C)C)cc1 | 14.3 | 0.06 |  |
| CCN(C(=O)Cc1ccccc1)[C@H](CN1CCCC1)C(C)C | 16 | 0.07 |  |
| CC(C)C[C@@H](CN1CCCC1)N(C)C(=O)Cc1ccc(Cl)c(Cl)c1 |  |  | Ke (Mus musculus [7]): Non-competitive antagonist |
| C=CCN(C)C[C@H](c1ccccc1)N(C)C(=O)Cc1ccc(Cl)c(Cl)c1 | 11.8 | 10.3 |  |
| CC(C)[C@@H](CN1CCCC1)N(C)C(=O)Cc1cccc(Cl)c1 |  |  | Potency ratio [3]: 0.49; Ke [4]: 12.1 nM |
| CC(C)[C@@H](CN1CCCC1)N(C)C(=O)CSc1ccccc1 | 15.2 | 0.63 |  |
| CC(C)[C@@H](CN1CCCC1)N(C)C(=O)Cc1ccc(C#N)cc1 | 16.5 | 0.08 |  |
| CN(C(=O)Cc1ccc(Cl)c(Cl)c1)C1CCCCC1N1CCCC1 (stereo not given) |  |  | Potency ratio [3]: 0.11; Ke [4]: 15.5 nM |
